Assay results from paper PMC7723054.
This is one part of the list.

T1: LIN28A (human?, UniProt Q9H9Z2 1-209)
T1 sequence: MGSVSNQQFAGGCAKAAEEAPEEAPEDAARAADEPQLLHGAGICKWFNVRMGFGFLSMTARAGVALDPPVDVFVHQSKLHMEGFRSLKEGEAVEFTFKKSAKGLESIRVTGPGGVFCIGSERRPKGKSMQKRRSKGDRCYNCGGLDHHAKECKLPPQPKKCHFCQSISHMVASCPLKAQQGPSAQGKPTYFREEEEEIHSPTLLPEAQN

T2: CIRBP (Homo sapiens, UniProt Q14011 1-172)
T2 sequence: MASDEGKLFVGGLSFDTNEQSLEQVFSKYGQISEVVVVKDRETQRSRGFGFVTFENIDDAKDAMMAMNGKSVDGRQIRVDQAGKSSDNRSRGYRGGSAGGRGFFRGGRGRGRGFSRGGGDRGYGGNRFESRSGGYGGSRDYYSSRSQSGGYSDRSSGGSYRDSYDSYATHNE

T3: DHX36 (Homo sapiens, UniProt Q9H2U1 1-1008)
T3 sequence: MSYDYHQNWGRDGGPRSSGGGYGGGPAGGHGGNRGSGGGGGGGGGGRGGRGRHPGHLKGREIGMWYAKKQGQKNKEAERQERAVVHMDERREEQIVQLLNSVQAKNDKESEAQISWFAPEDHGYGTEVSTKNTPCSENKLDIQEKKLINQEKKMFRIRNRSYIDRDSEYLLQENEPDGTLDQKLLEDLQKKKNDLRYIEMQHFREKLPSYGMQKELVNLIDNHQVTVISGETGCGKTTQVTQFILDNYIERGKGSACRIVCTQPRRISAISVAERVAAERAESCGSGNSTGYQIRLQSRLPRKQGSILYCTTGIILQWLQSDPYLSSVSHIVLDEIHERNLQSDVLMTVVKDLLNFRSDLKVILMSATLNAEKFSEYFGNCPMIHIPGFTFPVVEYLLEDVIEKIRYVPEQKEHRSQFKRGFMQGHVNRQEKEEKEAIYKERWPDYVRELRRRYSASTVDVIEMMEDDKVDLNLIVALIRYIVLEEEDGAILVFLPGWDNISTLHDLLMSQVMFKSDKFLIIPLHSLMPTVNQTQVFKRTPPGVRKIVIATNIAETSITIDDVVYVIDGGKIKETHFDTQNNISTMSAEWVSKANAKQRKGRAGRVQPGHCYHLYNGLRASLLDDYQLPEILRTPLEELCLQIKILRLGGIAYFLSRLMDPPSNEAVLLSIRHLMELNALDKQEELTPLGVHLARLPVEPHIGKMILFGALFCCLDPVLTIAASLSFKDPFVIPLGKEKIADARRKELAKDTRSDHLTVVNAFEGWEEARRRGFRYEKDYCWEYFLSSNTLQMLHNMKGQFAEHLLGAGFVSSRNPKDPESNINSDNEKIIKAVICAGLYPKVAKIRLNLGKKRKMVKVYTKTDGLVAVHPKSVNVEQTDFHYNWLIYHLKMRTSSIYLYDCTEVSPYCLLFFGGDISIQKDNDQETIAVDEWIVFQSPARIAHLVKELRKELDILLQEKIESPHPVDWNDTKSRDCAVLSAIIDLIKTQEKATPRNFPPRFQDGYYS

B1: hsa-mir-598 (structured_RNA)
RNA: GGGAAAGGCACAGGUCUGAUUGCGAUGGGGUGUACGAAGUUUCAGCGUGAGCUGGAAAUGGGGUGCUACGCUGAAGCUUCGUGCAC
B2: hsa-mir-30e (structured_RNA)
RNA: GGGAAAGUUAUCGUCCGGCUCGGUUCUAGGUGUACGAAGUUUCAGCGAAGCUGUAAGGUGUUCAGAGGAGCUUUGCUGAAGCUUCGUGCAC
B3: hsa-mir-6855 (structured_RNA)
RNA: GGGAGGGAUUCAGACCGGAUUCCAUACGGGUGUACGAAGUUUCAGCGACAUUGCCAGAGGAUGGGCAGCAGACGCUGAAGCUUCGUGCAC
B4: hsa-mir-4433a (structured_RNA)
RNA: GGGAAUGAGGAGAUUGGCCGGCAGGAAGGGUGUACGAAGUUUCAGCCUGUUUCUGGUGAAAUAUUCAAACAGGCUGAAGCUUCGUGCAC
B5: PARIS_ID31 (structured_RNA)
RNA: GGGAAAUAUUUAUCAGGAGUGAGGCGCAGGUGUACGAAGUUUCAGCUGCUCUGGCUCUUGGCAGCUGAAGCUUCGUGCAC
B6: hsa-mir-7159 (structured_RNA)
RNA: GGGAACAGACGGGAACGCAAUGGAUAUUGGUGUACGAAGUUUCAGCGGAUGGCCAGGGAAGUAUGCCGGGCCUUGGCAUUUCGCUGAAGCUUCGUGCAC
B7: hsa-mir-4699 (structured_RNA)
RNA: GGGACAAGACGCAGAGUAUUGUAAGAUUGGUGUACGAAGUUUCAGCAGUUCCUGAUUAAGAAAUGGAAUUGCUGAAGCUUCGUGCAC
B8: hsa-mir-7977 (structured_RNA)
RNA: GGGAACCCGAUCGACAGAAGCGUUACAUGGUGUACGAAGUUUCAGCACCAAAAAUGAUAUGGGUGCUGAAGCUUCGUGCAC
B9: hsa-mir-4257 (structured_RNA)
RNA: GGGAGACCGUAUACGAUUUUGGCUGAUGGGUGUACGAAGUUUCAGCUUGGGGAGGAGCUAAGAAGCCCCUACAGGGCCCAGGCUGAAGCUUCGUGCAC
B10: hsa-mir-10a (structured_RNA)
RNA: GGGAGUUCUCGACAGGCCGGAAACUCAAGGUGUACGAAGUUUCAGCUUUGUGUAAGGAAUUUUGUGGUCACAAAGCUGAAGCUUCGUGCAC
B11: hsa-mir-548a-1 (structured_RNA)
RNA: GGGAAACAAAAGGAACAAAAGUCCACCCGGUGUACGAAGUUUCAGCUUUGCCAUUAAAAGUAACGACAAAGCUGAAGCUUCGUGCAC
B12: hsa-mir-7155 (structured_RNA)
RNA: GGGAAUGAACGAAAUACGGGCUGGUAUAGGUGUACGAAGUUUCAGCGCCAUCUGGUUGUGACAUCACUGAUGGCGCUGAAGCUUCGUGCAC
B13: hsa-mir-4782 (structured_RNA)
RNA: GGGAAUGUAUUCUCGCGCGCUUAGGGCCGGUGUACGAAGUUUCAGCAUCAAGAAAAGAUUUGGUGUUCUUGAUGCUGAAGCUUCGUGCAC
B14: hsa-mir-548z (structured_RNA)
RNA: GGGACAUCAAUAACGGAGGAACACCAAGGGUGUACGAAGUUUCAGCUUUGCUACUGAAAGUAAUGGCAAAGCUGAAGCUUCGUGCAC
B15: hsa-mir-4523 (structured_RNA)
RNA: GGGACGAUUUCUCGGGAAAUUUCGGAACGGUGUACGAAGUUUCAGCCUGUGUGAGGACUAGAGGCGGGCUGAAGCUUCGUGCAC
B16: hsa-mir-4636 (structured_RNA)
RNA: GGGAAAGAGCCAAAGGAUCACAAGGUUUGGUGUACGAAGUUUCAGCUUAGCCCAGCAAUGGGAGAGUGCUAAGCUGAAGCUUCGUGCAC
B17: hsa-mir-3689e (structured_RNA)
RNA: GGGACAGGUAUACUGGAUCAAGUCACGCGGUGUACGAAGUUUCAGCGGGAGGUAUGAUAUCGUGGUUCCUGCUGAAGCUUCGUGCAC
B18: hsa-mir-4768 (structured_RNA)
RNA: GGGAAGCGUGGCGCGCUACUACACUAAUGGUGUACGAAGUUUCAGCAUGGAUAUGGGAACUGUGAUGUCCAGCUGAAGCUUCGUGCAC
B19: hsa-mir-6165 (structured_RNA)
RNA: GGGACUGAGACAGUAGUAUCGUCGGCCAGGUGUACGAAGUUUCAGCGGAGAGGAUCCACCUGUCCUGUCCGCUGAAGCUUCGUGCAC
B20: hsa-mir-4453 (structured_RNA)
RNA: GGGAACCGGCUGUAUCUGUGAUACCCGCGGUGUACGAAGUUUCAGCGGUUUCCUUCGGGGCAGGUGGGGACUGCUCCUUUGGGAGGAAGGAGGAGGCCGCUGAAGCUUCGUGCAC
B21: hsa-mir-4433b (structured_RNA)
RNA: GGGAAUUUAAACCGGGCGAGAAUCUUAGGGUGUACGAAGUUUCAGCCCUGUUUGAAUAUUUCACCAGAAACAGGGCUGAAGCUUCGUGCAC
B22: hsa-mir-3919 (structured_RNA)
RNA: GGGAACAGACUAUGUGAAUGGGCGACUGGGUGUACGAAGUUUCAGCCUACUAGUUUGUAGUAGUUCGUAGCAGGCUGAAGCUUCGUGCAC
B23: hsa-mir-5192 (structured_RNA)
RNA: GGGAAAUGCACCACAAAUCUAUGGCCAAGGUGUACGAAGUUUCAGCUCCUGGGAAGCAUGGUAGCCAGGAGCUGAAGCUUCGUGCAC
B24: hsa-mir-1273f (structured_RNA)
RNA: GGGACUAAGACCAUACUAUUGCGUUCGCGGUGUACGAAGUUUCAGCAGUGAGCUGAGAUCACGCAACUGCUGAAGCUUCGUGCAC
B25: hsa-mir-4483 (structured_RNA)
RNA: GGGAAAAGUCGACCGAUAAAUUACGAGAGGUGUACGAAGUUUCAGCCCCAUAUAAUAUUAGGGGGCUGAAGCUUCGUGCAC
B26: hsa-mir-101-2 (structured_RNA)
RNA: GGGAUAUCCGAGCGUGAUGGAAAUCUCUGGUGUACGAAGUUUCAGCGAUGCUGUAUAUCUGAAAGGUACGCUGAAGCUUCGUGCAC

What follows are binders tested against T1, LIN28A (assay: FOREST: bead pull-down of RNA structure library v1, barcode microarray; U1A/LIN28A: 20 mM HEPES pH 7.5, 80 mM KCl, 20 mM NaCl, 10% glycerol, 2 mM DTT, 0.1 ug/uL BSA, 4 C; BG4/CIRBP/DHX36: 10 mM Tris-HCl pH 7.5, 100 mM KCl (or LiCl),; high values mean tight binding).

Binder | binding signal
B1 | 2.35 z-score
B2 | 2.34 z-score
B3 | 2.22 z-score
B4 | 2.18 z-score
B5 | 2.1 z-score
B6 | 2.08 z-score
B7 | 2.04 z-score
B8 | 1.96 z-score
B9 | 1.93 z-score
B10 | 1.91 z-score
B11 | 1.9 z-score
B12 | 1.86 z-score
B13 | 1.86 z-score
B14 | 1.85 z-score
B15 | 1.82 z-score
B16 | 1.82 z-score
B17 | 1.81 z-score
B18 | 1.78 z-score
B19 | 1.77 z-score
B20 | 1.76 z-score
B21 | 1.69 z-score
B22 | 1.68 z-score
B23 | 1.66 z-score
B24 | 1.65 z-score
B25 | 1.64 z-score
B26 | 1.62 z-score

The binders below were run against T2, CIRBP in the same assay as above.

Binder | binding signal
B1 | 0.281 z-score
B2 | 2.29 z-score
B4 | 1.37 z-score
B5 | 2.32 z-score
B6 | 0.812 z-score
B7 | 1.31 z-score
B8 | 0.469 z-score
B9 | 0.919 z-score
B10 | -0.333 z-score
B11 | -1.5 z-score
B12 | 1.67 z-score
B13 | -0.085 z-score
B14 | 1.56 z-score
B15 | 0.847 z-score
B16 | 1.19 z-score
B17 | -1.33 z-score
B18 | 0.23 z-score
B19 | 2.22 z-score
B20 | -1.02 z-score
B21 | -0.173 z-score
B22 | 0.752 z-score
B23 | 0.0873 z-score
B24 | 0.686 z-score
B25 | 1.63 z-score
B26 | -0.384 z-score

These binders were tested against T3, DHX36 in the same assay as above.

Binder | binding signal
B1 | 0.749 z-score
B2 | 0.262 z-score
B3 | -0.0992 z-score
B4 | 0.327 z-score
B5 | 0.916 z-score
B6 | 0.817 z-score
B7 | -0.00178 z-score
B8 | -0.225 z-score
B9 | 0.756 z-score
B10 | -0.412 z-score
B11 | -0.273 z-score
B12 | -1.02 z-score
B13 | -0.578 z-score
B14 | -0.0642 z-score
B15 | 1.29 z-score
B16 | -0.0671 z-score
B17 | -0.0835 z-score
B18 | -0.0408 z-score
B19 | 1.71 z-score
B20 | 2.45 z-score
B21 | 0.836 z-score
B22 | 0.081 z-score
B23 | -0.293 z-score
B24 | -0.425 z-score
B25 | 1.36 z-score
B26 | 2.07 z-score
